Earlier results on one molecule are cited in PMC6832141, “Synthesis and Cyclooxygenase Inhibition of Sulfonamide-Substituted (Dihydro)Pyrrolo[3,2,1-hi]indoles and Their Potential Prodrugs” (Molecules, 2019).

The subject of the data set is hCOX-2. The conditions noted are these: read-out: IC50 hCOX-2; cited from earlier work.

For `Cc1onc(-c2ccccc2)c1-c1ccc(S(N)(=O)=O)cc1` [valdecoxib, 4-(5-methyl-3-phenyl-4-isoxazolyl)benzenesulfonamide], the half-maximal inhibitory concentration (IC50) is 5 nM.
